One data set has as its system CYP2D6. The experiment in a line: in vitro. As to conditions: human, microsomes.
The subject of the next data set is CYP3A4/5. Nature of the data set: in vitro. As to conditions: human, microsomes, HLM.

Where only a bound is given, the exact number is not on record here.

In the case of `CNCCC(Oc1ccc(C(F)(F)F)cc1)c1ccccc1` (centres unmarked) [Fluoxetine, fluoxetine], the inhibition at 30 min, 10 µM with CYP2D6 (% Inhibition of (R)-EDDP production, HLM) was 23.8%; in the data set on CYP2D6 (% Inhibition of (S)-EDDP production, HLM), 23.5%; in the data set on CYP2D6 (Inhibition of (R)- and (S)-EDDP formation) it was under 30%. Besides, the inhibition at 15 min, 10 µM with CYP3A4/5 (% Inhibition of (R)-EDDP production) was determined as 11.6%; with CYP3A4/5 (% Inhibition of (S)-EDDP production), 12.1%.

Source of the values: article PMC3005981 (Basic & clinical pharmacology & toxicology, 2010).
